Test results: patent US10214477B2 (dated 2019)
Where a name gives a salt, the structure may show the parent alone.

Protein sequences, listed by entry. Tags and fused reporters are not part of them.
UniProt P27338, whole entry: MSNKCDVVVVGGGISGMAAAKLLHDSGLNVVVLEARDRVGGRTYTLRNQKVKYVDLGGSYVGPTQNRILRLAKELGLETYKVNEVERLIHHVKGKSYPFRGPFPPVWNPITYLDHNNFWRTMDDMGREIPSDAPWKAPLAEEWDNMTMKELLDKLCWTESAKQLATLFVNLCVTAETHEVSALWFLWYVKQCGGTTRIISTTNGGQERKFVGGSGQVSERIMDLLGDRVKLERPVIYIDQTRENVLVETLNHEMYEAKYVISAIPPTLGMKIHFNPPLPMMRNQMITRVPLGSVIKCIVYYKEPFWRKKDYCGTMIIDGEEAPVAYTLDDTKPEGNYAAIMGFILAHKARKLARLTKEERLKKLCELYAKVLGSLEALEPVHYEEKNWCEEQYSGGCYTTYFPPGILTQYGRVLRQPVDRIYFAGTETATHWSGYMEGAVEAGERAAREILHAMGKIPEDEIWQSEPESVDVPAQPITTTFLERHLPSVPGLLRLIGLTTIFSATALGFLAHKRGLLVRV
UniProt P21397, whole entry: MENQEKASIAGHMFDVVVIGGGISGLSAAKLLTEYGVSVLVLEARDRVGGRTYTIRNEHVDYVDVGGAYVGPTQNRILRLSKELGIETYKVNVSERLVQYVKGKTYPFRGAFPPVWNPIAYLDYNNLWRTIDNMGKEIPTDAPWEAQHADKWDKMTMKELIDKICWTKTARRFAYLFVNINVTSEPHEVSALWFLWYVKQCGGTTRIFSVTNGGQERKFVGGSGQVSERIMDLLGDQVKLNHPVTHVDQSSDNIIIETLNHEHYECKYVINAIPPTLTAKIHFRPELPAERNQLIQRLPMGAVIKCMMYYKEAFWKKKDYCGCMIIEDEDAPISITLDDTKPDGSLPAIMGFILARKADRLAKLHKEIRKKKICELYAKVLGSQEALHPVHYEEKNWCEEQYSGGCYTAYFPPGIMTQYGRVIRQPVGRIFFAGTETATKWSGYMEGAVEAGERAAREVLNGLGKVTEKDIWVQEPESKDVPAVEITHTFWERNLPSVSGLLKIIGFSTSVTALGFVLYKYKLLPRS

Assays:
THP-1 cells = test: cells; conditions: Homo sapiens, THP-1, 96 h
[1] = molecular target: Human recombinant monoamine oxidase MAO-B (Homo sapiens (Human), UniProt P27338); test: Monoamine oxidase assay (kynuramine to 4-hydroxyquinoline fluorescence), MAO-B; assay type: biochemical
[2] = molecular target: Human recombinant monoamine oxidase MAO-A (Homo sapiens (Human), UniProt P21397); test: Monoamine oxidase assay (kynuramine to 4-hydroxyquinoline fluorescence), MAO-A; assay type: biochemical

Row | Ki [1] | Ki [2] | Compound | EC50 (THP-1 cells)
1 |  |  | NC1CCC(N[C@H]2C[C@@H]2c2cncs2)CC1 (relative stereo) [Example 6, N1-((trans)-2-(thiazol-5-yl)cyclopropyl)cyclohexane-1,4-diamine hydrochloride] | > 200 nM
2 | 1000 to 40000 nM | 1000 to 40000 nM | OC1CCC(N[C@@H]2C[C@H]2c2ccc(-c3cccc(C(F)(F)F)c3)nc2)CC1 (relative stereo) [Example 11, 4-(((trans)-2-(6-(3-(trifluoromethyl)phenyl)pyridin-3-yl)cyclopropyl)amino)cyclohexanol] | 
3 | 1000 to 40000 nM | 1000 to 40000 nM | NC(=O)C1CCC(N[C@@H]2C[C@H]2c2ccc(-c3cccc(C(F)(F)F)c3)nc2)CC1 (relative stereo) [Example 12, 4-(((trans)-2-(6-(3-(trifluoromethyl)phenyl)pyridin-3-yl)cyclopropyl)amino)cyclohexanecarboxamide hydrochloride] | 
4 |  |  | NCC1CCC(N[C@H]2C[C@@H]2c2ccccc2)CC1 (relative stereo) [Example 17] | 6.3 nM
5 |  |  | NC1CC(N[C@H]2C[C@@H]2c2ccccc2)C1 (relative stereo) [Example 19, N1-((trans)-2-phenylcyclopropyl)cyclobutane-1,3-diamine] | 2.2 nM
6 |  |  | CNC1CCC(N[C@H]2C[C@@H]2c2ccccc2)CC1 (relative stereo) [Example 22, N1-methyl-N4-((trans)-2-phenylcyclopropyl)cyclohexane-1,4-diamine] | 3.6 nM
7 |  |  | NC1CCC(N[C@H]2C[C@@H]2c2ccc(Br)cc2)CC1 (relative stereo) [Example 26, N1-((trans)-2-(4-bromophenyl)cyclopropyl)cyclohexane-1,4-diamine] | 9.7 nM
8 |  |  | NC1CCC(N[C@H]2C[C@@H]2c2ccc(C3CC3)cc2)CC1 (relative stereo) [Example 40, N1-((trans)-2-(4-cyclopropylphenyl)cyclopropyl)cyclohexane-1,4-diamine] | 2.5 nM
9 |  |  | NC1CCC(N[C@H]2C[C@@H]2c2ccc(OCc3ccccc3F)cc2)CC1 (relative stereo) [Example 57, N1-((trans)-2-(4-((2-fluorobenzyl)oxy)phenyl)cyclopropyl)cyclohexane-1,4-diamine] | 2 nM
10 |  |  | NC1CCC(NC2CC2c2ccc3ccccc3c2)CC1 (centres unmarked) [Example 33, N1-(2-(naphthalen-2-yl)cyclopropyl)cyclohexane-1,4-diamine] | 13.9 nM
11 |  |  | N[C@H]1CC[C@@H](N[C@@H]2C[C@H]2c2ccc(-c3cccc(C(F)(F)F)c3)cc2)CC1 [Example 38, (Cis)-N1-((1R,2S)-2-(3′-(trifluoromethyl)-[1,1′-biphenyl]-4-yl)cyclo-propyl)cyclohexane-1,4-diamine] | 20 nM
12 |  |  | N[C@H]1CC[C@H](N[C@@H]2C[C@H]2c2ccc(-c3cccc(C(F)(F)F)c3)cc2)CC1 [Example 39, (Trans)-N1-((1R,2S)-2-(3′-(trifluoromethyl)-[1,1′-biphenyl]-4-yl)cyclo-propyl)cyclohexane-1,4-diamine] | 6.6 nM
